Source: PubChem BioAssay
Only some compounds are listed: those with a hit (about 1.8% of all), similar ones and a draw of the others.
SIRT5 block – blocks human SIRT5 desuccinylation of peptide. Q9NXA8. Purified SirT5, succinyl-peptide AMC, trypsin-coupled fluorescence. inhibition, % at 15 µM. hit rate 1.1% among 330,000. AID 652115; in the data active means inhibition above about 15%; inconclusive means no clear call, values can overlap the other calls
RAD52 inh – inhibitors of human RAD52 DNA annealing | P43351 | recombinant RAD52 DNA annealing, FRET fluorescence | inhibition, % at 18.7 µM | hit rate 0.46% among 360,000 | AID 651710;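 active means every replicate showing at least 50% inhibition; inconclusive means mean inhibition at least 50% but not in every replicate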
MLL AF4-AF9 inh – inhibitors of human MLL-AF4/AF9 interaction; AID 651704; AlphaScreen, biotin-AF4 peptide binding to FLAG-AF9; P42568; hit rate 0.47% among 350,000; inhibition, % at 10 µM;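 active means every replicate reaching a set inhibition limit, whatever the replicate mean, cut at about 25% in these data; inconclusive means mean inhibition reaches that limit but some replicates miss it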;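 further: 0% = plate neutral control median and 100% = total signal loss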
E-sel inducer – E-selectin induction on HUVECs. P16581. HUVEC E-selectin immunofluorescence imaging; normalized: neutral wells 0, TNF-alpha wells 100. activation, % at 7.58 µM. hit rate 0.37% among 260,000;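 active means mean E-selectin-positive cell signal at least 10% of the positive control, reached in at least 60% of replicates, without over 20% cell loss; inconclusive means no rule given, readout overlaps actives, possibly toxicity-flagged; inactive means the rest, including those meeting only one limit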
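System: HUVEC / Compound: single concentration / Signal: immunofluorescence imaging / Read-out: percent E-selectin-positive cells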
UUG fidelity – alters start codon recognition fidelity in yeast; S. cerevisiae UUG-firefly luciferase reporter, luminescence/redox ratio; activity score, % at 18.7 µM; actives 0.13% (n = 350,000); AID 602363;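 active = replicate mean at a twofold rise or more, about +100% in these data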;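 also: firefly luciferase made from a UUG start codon reports start codon fidelity; reporter light over untreated wells divided by growth signal over untreated wells; some hits fall short of that in this replicate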
RAD54 branch – RAD54 (human) branch migration inhibition. RAD54 Holliday junction branch migration, FAM/BHQ fluorescence. inhibition, % at 10.4 µM. hit rate 0.14% among 360,000;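 active means mean normalized replicate activity at least 40 and at least half of replicates scoring 40 or more; inconclusive means only one of the two criteria met; inactive means mean below 40 and under half of replicates reaching 40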;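 further: 0% = median of neutral control wells and 100% = median of positive control wells; inhibitors cause a drop in the FAM fluorescence signal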
DNA binding – counter-screen for Rad54 inhibitors: DNA binding compounds. shares compounds with RAD54 branch. Acridine orange-DNA displacement, fluorescence polarization, 20 min. AC50, µM (highest dose often 35 µM), inactives show at the highest dose activity change, negative = DNA binding. hit rate 8% among 460;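 active means signal drop giving an AC50 within twice the top valid tested concentration of each sample, actives reach about 35 µM in these data; inactive means activity opposite to expected, plus the rest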;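 further: polarization loss reports compound binding to salmon sperm DNA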
* = called active by the depositor; i = inactive; ? = inconclusive; . = no result given.

The first two entries, to show the layout:
(1) COc1cc2nc(N3CCNCC3)nc(N)c2cc1OC
(2) COc1ccccc1C1=NOC(Cn2c(NCCCO)nc3c2c(=O)n(C)c(=O)n3C)C1 (stereo unspecified)

assay / compound	1	2
SIRT5 block	.	0
RAD52 inh	.	-12
MLL AF4-AF9 inh	.	2
E-sel inducer	.	2
UUG fidelity	-7	-3
RAD54 branch	64*	?
DNA binding	-9%	5%

This part in full, previewed entries included:
(1) COc1cc2nc(N3CCNCC3)nc(N)c2cc1OC
(2) COc1ccccc1C1=NOC(Cn2c(NCCCO)nc3c2c(=O)n(C)c(=O)n3C)C1 (stereo unspecified)
(3) COc1ccccc1C1=NOC(Cn2c(NCC3CCCO3)nc3c2c(=O)n(C)c(=O)n3C)C1 (stereo unspecified)
(4) COc1ccc(-c2cc(=O)oc3c(C)c(O)c(CN(C)C)cc23)cc1
(5) Cc1c(O)c(CN(C)C)cc2c1oc(=O)c1ccccc12

assay / compound	1	2	3	4	5
SIRT5 block	.	0	-2	.	4
RAD52 inh	.	-12	-7	.	26
MLL AF4-AF9 inh	.	2	4	-6	4
E-sel inducer	.	2	0	.	1
UUG fidelity	-7	-3	3	-6	-15
RAD54 branch	64*	?	-4	7	?
DNA binding	-9%	5%	.	.	8%

Record cards, as listed above. Values in the order: SIRT5 block	RAD52 inh	MLL AF4-AF9 inh	E-sel inducer	UUG fidelity	RAD54 branch	DNA binding
COc1ccccc1C1=NOC(Cn2c(NCC3CCCO3)nc3c2c(=O)n(C)c(=O)n3C)C1 (stereo unspecified) in the list: -2	-7	4	0	3	-4	.
COc1cc2nc(N3CCNCC3)nc(N)c2cc1OC in the list: .	.	.	.	-7	64*	-9%

(next part)
(6) Cc1ccc(O)c(Nc2c3ccccc3nc3ccccc23)c1
(7) Oc1ccc(CCNc2c3ccccc3nc3ccccc23)cc1O
(8) Cn1c2ccc(F)cc2c2ncn(CCCN(CCO)CCO)c(=O)c21
(9) CC(=O)N1CC2(C1)[C@@H](c1ccccc1)[C@@H](CO)N2Cc1cccc(Cl)c1
(10) CN(C)C(=O)C[C@H]1C=C[C@H](NS(=O)(=O)c2ccccc2)[C@H](CO)O1

assay / compound	6	7	8	9	10
SIRT5 block	-3	-5	.	0	-5
RAD52 inh	2	106*	.	-1	9
MLL AF4-AF9 inh	7	19	.	1	.
E-sel inducer	2	0	.	0	0
UUG fidelity	5	-5	-4	.	-5
RAD54 branch	9	116*	54*	.	4
DNA binding	.	25µM*	-14%	.	.

(11) C[C@H]1CN([C@@H](C)CO)C(=O)c2cc(NC(=O)CCC(F)(F)F)ccc2O[C@@H]1CN(C)Cc1ccc(Cl)c(Cl)c1
(12) Cc1cccc(Cn2c(Sc3nc(C)cs3)nc3c2c(=O)[nH]c(=O)n3C)c1
(13) CCOC(=O)c1cnc2c(C)cccc2c1NCCCN1CCOCC1
(14) CCOC(=O)c1cnc2c(CC)cccc2c1NCCN1CCOCC1
(15) CCOC(=O)c1c(NC(C)=O)sc2c(O)c(CN3CCN(CC)CC3)ccc12

assay / compound	11	12	13	14	15
SIRT5 block	2	.	13	-1	.
RAD52 inh	3	.	17	2	.
MLL AF4-AF9 inh	4	.	2	3	.
E-sel inducer	1	.	.	.	.
UUG fidelity	.	-10	-5	-22	4
RAD54 branch	-4	?	95*	11	62*
DNA binding	.	14%	-19%	.	24%

(16) O=C(C[C@H]1CC[C@H]2[C@@H](COC[C@@H](O)CN2Cc2nccs2)O1)NCc1ccccc1
(17) Cc1ccc(-c2csc3nc4c5ccccc5c(NCCCN(C)C)nn4c(=O)c23)cc1
(18) Cc1ccc(-c2csc3nc(C)n(N)c(=O)c23)cc1
(19) CNC[C@H]1Oc2ccc(NS(=O)(=O)c3ccc(F)cc3)cc2C(=O)N([C@@H](C)CO)C[C@H]1C
(20) CCOC(=O)c1c(NC(C)=O)sc2c(OC)c(Br)ccc12

assay / compound	16	17	18	19	20
SIRT5 block	-2	-28	-2	2	0
RAD52 inh	-5	97*	-4	-2	-17
MLL AF4-AF9 inh	-1	-2	-1	-3	1
E-sel inducer	0	.	0	.	.
UUG fidelity	.	7	-13	-7	-18
RAD54 branch	6	53*	-10	7	3
DNA binding	.	-17%	.	.	.

(21) CCOC(=O)c1c(NC(C)=O)sc2c(OCC(O)CN(CC)CC)c(Br)ccc12 (stereo unspecified)
(22) CCN(CC)CCn1c2ccc(F)cc2c2nc(C)sc21
(23) Cc1ccc(CSc2nnc(-c3ccc(S(=O)(=O)N4CCCC4)cc3)o2)cc1
(24) O=S(=O)(c1ccc(-c2nnc(SCc3ccccc3)o2)cc1)N1CCCC1
(25) Cc1nnc2c(N3CCN(CCO)CC3)nc3ccccc3n12

assay / compound	21	22	23	24	25
SIRT5 block	1	.	.	.	4
RAD52 inh	46	.	.	.	5
MLL AF4-AF9 inh	6	.	.	.	4
E-sel inducer	.	.	.	.	.
UUG fidelity	2	-13	-15	2	-17
RAD54 branch	84*	?	3	?	?
DNA binding	2%	-5%	.	8%	-18%

(26) Oc1ccccc1-c1nc(NCCN2CCOCC2)c2ccccc2n1
(27) CN(C)CCCNc1nc(-c2ccccc2)nc2ccccc12
(28) Cc1cccc(-c2nc(NCCN(C)C)c3ccccc3n2)c1
(29) Clc1ccc(-c2nc(NCCCN3CCOCC3)c3ccccc3n2)cc1
(30) Cc1ccc(-c2nc(NCCN3CCOCC3)c3ccccc3n2)cc1

assay / compound	26	27	28	29	30
SIRT5 block	.	-5	.	0	.
RAD52 inh	.	48	16	2	.
MLL AF4-AF9 inh	.	-1	5	.	.
E-sel inducer	.	0	0	0	.
UUG fidelity	4	-14	-1	-7	-19
RAD54 branch	?	67*	38	24	?
DNA binding	10%	-22%	.	.	-7%

(31) COc1cccc(-c2nc(NCCN3CCOCC3)c3ccccc3n2)c1O
(32) COc1cccc(-c2nc(NC(C)(C)C)c3ccccc3n2)c1O
(33) O=C(Nc1ccccc1)N1C[C@H]2[C@@H](c3ccccc31)[C@H](CO)N2C(=O)Cc1ccccn1
(34) O=c1cc(NCCO)c2ccccc2o1
(35) CCN(CC)CCNc1ccc(CO)c2oc3ccccc3c(=O)c12

assay / compound	31	32	33	34	35
SIRT5 block	.	.	-2	.	-3
RAD52 inh	.	.	-10	.	47
MLL AF4-AF9 inh	.	.	1	.	3
E-sel inducer	.	.	0	.	.
UUG fidelity	11	-4	42	-16	10
RAD54 branch	109*	8	2	0	80*
DNA binding	-4%	.	.	.	-23%

(36) CS(=O)(=O)Nc1ccc2c(c1)[C@@H]1C[C@@H](CC(=O)NC3CCCCC3)O[C@H](CO)[C@@H]1O2
(37) CCN1CCN(c2nn3c(=O)c4ccccc4nc3c3ccccc23)CC1
(38) CC(=O)N1[C@@H]2Cn3c(ccc(-c4ccccc4)c3=O)[C@H]1[C@@H](C(=O)N1CCN(C)CC1)[C@@H]2CO
(39) Cc1nc2ccccc2c2oc(C(=O)N3CCC(N4CCCCC4)CC3)cc12
(40) Cc1nc2ccccc2c2oc(C(=O)NCCN3CCCCC3C)cc12 (stereo unspecified)

assay / compound	36	37	38	39	40
SIRT5 block	-2	.	-31	.	0
RAD52 inh	-2	.	4	.	-5
MLL AF4-AF9 inh	3	.	0	.	-6
E-sel inducer	0	.	1	.	4
UUG fidelity	52	-5	.	-25	-17
RAD54 branch	-2	57*	3	67*	52*
DNA binding	.	i	.	-5%	-19%

(41) CCN1CCCC1CNC(=O)c1cc2c(C)nc3ccccc3c2o1 (stereo unspecified)
(42) CN(C)Cc1ccccc1
(43) Cc1cc2ccc3ccccc3c2cc1CN(C)C
(44) O=C(N[C@H]1CC[C@@H](CCNS(=O)(=O)c2cccc(Cl)c2)O[C@H]1CO)c1ccncc1
(45) C=CCn1c(C)nnc1SCC(=O)N1c2ccccc2NC(=O)C1(C)C

assay / compound	41	42	43	44	45
SIRT5 block	.	.	-3	5	.
RAD52 inh	.	-3	42	-11	1
MLL AF4-AF9 inh	.	.	.	2	-6
E-sel inducer	.	.	.	0	1
UUG fidelity	-10	.	-1	-11	-18
RAD54 branch	28	.	52*	7	-5
DNA binding	.	.	-14%	.	.

(46) C=CCN1C(=O)C(C)(C)Nc2ccccc21
(47) C[C@@H]1CN([C@H](C)CO)C(=O)c2cc(C#CC(C)(C)O)cnc2O[C@H]1CN(C)C(=O)C1CCCCC1
(48) COc1ccccc1O
(49) COc1cccc2c1-c1c(O)cccc1C2=O
(50) Cc1cc(C)n(-c2nc(NCCN(C)C)c3c4c(sc3n2)COC(C)(C)C4)n1
(51) C[C@H](CO)N1C[C@H](C)[C@@H](CN(C)S(=O)(=O)c2cn(C)cn2)OCCCC[C@H](C)Oc2ccc(NC(=O)c3ccccc3)cc2C1=O

assay / compound	46	47	48	49	50	51
SIRT5 block	.	.	3	-3	2	-6
RAD52 inh	.	.	0	-29	29	-4
MLL AF4-AF9 inh	.	.	1	1	2	-6
E-sel inducer	.	0	0	.	1	0
UUG fidelity	-3	0	-16	-8	-13	-11
RAD54 branch	?	.	2	?	?	-2
DNA binding	-7%	.	.	-19%	11%	.
